According to article PMC10895676, “Antiviral Activity of Lipophilic Nucleoside Tetraphosphate Compounds” (Journal of Medicinal Chemistry, 2024):

Experiments:
[1] = system: HIV-2 (ROD); assay: Anti-HIV replication assay, HIV-2 (ROD) in wild-type CEM/0 cells; format: cell-based; details: CC50/EC50, HIV-2 (ROD) in CEM cells
Experimental: (§1) Inhibition of HIV-1(HE)- and HIV-2(ROD)-induced cytopathogenicity in wild-type CEM/0 CEM CD4^+ T-cells and thymidine kinase-deficient CEM/TK^– cell cultures was measured in microtiter 96-well plates containing ∼3 × 10^5 CEM cells/mL infected with 100 CCID50 of HIV per milliliter and containing appropriate dilutions of the test compounds. After 4–5 days of incubation at 37 °C in a CO2-controlled humidified atmosphere, virus-induced cellular effects and syncytia cell formation were examined microscopically.

[2] = system: HIV-2 (ROD); assay: Anti-HIV replication assay, HIV-2 (ROD) in thymidine kinase-deficient CEM/TK– cells; format: cell-based; details: CC50/EC50, HIV-2 (ROD) in CEM/TK– cells
Experimental: as §1

SMILES: CCCCOP(=O)(OCCCC)OP(=O)(O)OP(=O)(O)OP(=O)(O)OC[C@@H]1C=C[C@H](n2cc(C)c(=O)[nH]c2=O)O1 [4a, δ-(Alkyl-C4; alkyl-C4)-d4T4P]
- selectivity index (SI) [1]: >625
- selectivity index (SI) [2]: >6
